For one test, the target named is CDK2/CycA2 (Homo sapiens, UniProt P24941). In words: CDK2 mobility shift assay (enzymatic activity of CDK2/CycA2). The format is biochemical. Conditions: read-out: CDK2 IC50; 1.25 nM CDK2/CycA2, 37 μM ATP, FL Peptide 18, 120 min at room temperature. As to the method:
(§1) Compound potency was measured via a change in the enzymatic activity of CDK5/p25, and optionally of CDK2/CycA2. Enzymes, CDK5/p25 and CDK2/CycA2, were sourced from Carna Biosciences (Cat #04-106 and 04-103, respectively). Test compound stocks were diluted in 100% DMSO and serially diluted 3-fold in a 384-well plate using a TECAN EVO200 (TECAN). Staurosporine was used as a reference control compound in all assays.
(§2) Twenty nL of compound were transferred into a 384-well plate (Greiner 781201) using an Echo550 (Labcyte Inc). Enzyme, ATP, and 10 mM MgCl2 were preincubated at room temperature with the compound in assay buffer (50 mM HEPES pH 7.5, 1 mM EGTA, 0.01% Brij-35, 0.05% BSA, 2 mM DTT) for 30 minutes. Peptide substrate (FL peptide 29 (Perkin Elmer) for CDK5/p25; FL Peptide 18 (Perkin Elmer) for CDK2/CycA2) was added to initiate the reaction. […]
(§3) The CDK5/p25 reaction was incubated at room temperature for 60 min. […] Samples were analyzed using the EZ Reader (Perkin Elmer).
(§4) The results were expressed as % vehicle, where % vehicle=100×(U−C2)/(C1−C2), where U is the signal of sample, C1 is the average of the high controls (signal with no compound added), and C2 is the average of low controls (signal with the buffer in place of enzyme). The ICso is determined by fitting the percentage of inhibition as a function of compound concentrations using a 4-parameter fit defined as follows. […]

The chains behind the UniProt entries cited, without tags or fusion partners.
UniProt Q00535, whole entry, looked up: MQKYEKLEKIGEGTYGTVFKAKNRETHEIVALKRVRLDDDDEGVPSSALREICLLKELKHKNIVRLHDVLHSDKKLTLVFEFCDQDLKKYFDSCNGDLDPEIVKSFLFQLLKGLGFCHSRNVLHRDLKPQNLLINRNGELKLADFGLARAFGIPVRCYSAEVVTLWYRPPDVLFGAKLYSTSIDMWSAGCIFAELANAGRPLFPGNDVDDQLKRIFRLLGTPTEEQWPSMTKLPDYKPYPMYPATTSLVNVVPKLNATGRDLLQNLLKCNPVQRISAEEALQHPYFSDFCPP

The next test addresses CDK5/p25 (Homo sapiens, UniProt Q00535). The test is described as follows: CDK5 mobility shift assay (enzymatic activity of CDK5/p25). The format is biochemical. Here is the method: as §1, §2, §3, §4

In general, IC50 refers to the concentration that inhibits the measured activity by half. With `O=C(O)C(=O)N(c1ccc2cnc(Nc3ccc(-n4cccn4)cc3F)cc2n1)C1CCNCC1`, the IC50 is more than 1000 nM on CDK2/CycA2 and more than 1000 nM on CDK5/p25 (read-out: CDK5 IC50, 0.154 nM CDK5/p25, FL peptide 29, 60 min at room temperature). For the same molecule, the CDK5/CDK2 specificity entry at CDK5/p25 (fold more active against CDK5 than CDK2) is “+ (10-fold or less more active against CDK5 than CDK2)”.

The record behind these values is patent US20220389009A1, “SUBSTITUTED 1,6-NAPHTHYRIDINE INHIBITORS OF CDK5” (Goldfinch Bio, Inc., priority 2019, published 2022).
